ChEMBL document CHEMBL5614463, “Discovery of Imidazo[1,2-a]pyrazine Derivatives as Potent ENPP1 Inhibitors” (J Med Chem, 2024)
Active and inactive are the calls of the source.

Sequences of proteins named here, by UniProt entry; tags and fusion partners are left off. A change or cut given only in a name is not applied to a line headed by its entry.
UniProt Q86WV6: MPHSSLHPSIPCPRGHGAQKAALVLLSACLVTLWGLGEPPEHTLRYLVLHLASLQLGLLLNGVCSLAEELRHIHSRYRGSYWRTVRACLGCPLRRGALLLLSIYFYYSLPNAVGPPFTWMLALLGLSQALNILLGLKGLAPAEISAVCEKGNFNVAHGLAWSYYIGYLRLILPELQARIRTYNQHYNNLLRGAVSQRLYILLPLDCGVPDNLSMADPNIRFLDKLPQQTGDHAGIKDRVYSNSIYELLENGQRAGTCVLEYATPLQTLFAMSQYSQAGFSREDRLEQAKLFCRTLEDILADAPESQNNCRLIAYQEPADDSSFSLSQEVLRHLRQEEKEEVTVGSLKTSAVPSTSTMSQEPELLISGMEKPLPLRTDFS
UniProt Q9UHD2: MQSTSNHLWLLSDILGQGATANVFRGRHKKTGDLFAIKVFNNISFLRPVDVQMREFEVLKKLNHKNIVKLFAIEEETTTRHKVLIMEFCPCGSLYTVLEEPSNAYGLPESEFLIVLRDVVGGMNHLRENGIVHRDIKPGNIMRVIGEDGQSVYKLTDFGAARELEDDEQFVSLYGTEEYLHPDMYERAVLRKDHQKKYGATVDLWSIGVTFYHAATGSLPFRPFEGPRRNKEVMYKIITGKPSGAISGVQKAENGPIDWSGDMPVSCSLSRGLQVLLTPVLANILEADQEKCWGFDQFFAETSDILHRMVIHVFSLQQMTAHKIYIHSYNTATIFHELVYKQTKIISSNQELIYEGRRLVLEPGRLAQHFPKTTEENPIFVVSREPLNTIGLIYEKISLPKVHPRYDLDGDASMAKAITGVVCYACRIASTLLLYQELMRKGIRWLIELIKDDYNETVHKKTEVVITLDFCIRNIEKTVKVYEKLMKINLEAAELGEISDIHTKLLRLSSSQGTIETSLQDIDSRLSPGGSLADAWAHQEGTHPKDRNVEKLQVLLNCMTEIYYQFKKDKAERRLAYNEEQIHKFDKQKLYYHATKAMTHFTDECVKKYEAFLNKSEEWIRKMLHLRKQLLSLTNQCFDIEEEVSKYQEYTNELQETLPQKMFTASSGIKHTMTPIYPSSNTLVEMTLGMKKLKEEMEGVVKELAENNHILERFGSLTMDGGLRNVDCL

Legend:
Type in all cases: cell-based
[1] = target: T1, Stimulator of interferon genes protein (Mus musculus) (UniProt Q3TBT3); test: Activation of STING signaling pathway in mouse RAW264.7 cells assessed as increase in cGAMP-induced IL6 mRNA expression incubated for 12 hrs by qRT-PCR analysis; conditions: filed as activator
T1 sequence (whole entry): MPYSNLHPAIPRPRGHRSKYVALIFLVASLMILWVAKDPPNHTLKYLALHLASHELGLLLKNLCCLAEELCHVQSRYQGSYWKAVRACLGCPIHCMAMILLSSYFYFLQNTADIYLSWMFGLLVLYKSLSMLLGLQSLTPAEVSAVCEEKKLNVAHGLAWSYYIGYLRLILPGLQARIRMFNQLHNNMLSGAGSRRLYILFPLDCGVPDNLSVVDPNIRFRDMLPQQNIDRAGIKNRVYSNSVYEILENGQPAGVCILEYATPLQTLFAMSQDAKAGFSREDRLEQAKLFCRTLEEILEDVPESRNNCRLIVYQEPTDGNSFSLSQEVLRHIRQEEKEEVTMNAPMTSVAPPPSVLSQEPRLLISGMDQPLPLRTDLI

[2] = target: T1, Stimulator of interferon genes protein (Mus musculus); test: Activation of STING signaling pathway in mouse RAW264.7 cells assessed as increase in cGAMP-induced CXCL10 mRNA expression incubated for 12 hrs by qRT-PCR analysis; conditions: filed as activator
[3] = target: Stimulator of interferon genes protein (Homo sapiens) (UniProt Q86WV6); test: Activation of STING signaling pathway in human THP-1 cells assessed as increase in cGAMP-induced IL6 mRNA expression at 10 uM measured upto 36 hrs by qRT-PCR analysis; conditions: filed as activator
[4] = target: T1, Stimulator of interferon genes protein (Mus musculus); test: Activation of STING signaling pathway in mouse RAW264.7 cells assessed as increase in cGAMP-induced IFNB1 mRNA expression incubated for 12 hrs by qRT-PCR analysis; conditions: filed as activator
[5] = target: Stimulator of interferon genes protein (Homo sapiens) (UniProt Q86WV6); test: Activation of STING signaling pathway in human THP-1 cells assessed as increase in cGAMP-induced CXCL10 mRNA expression at 10 uM measured upto 36 hrs by qRT-PCR analysis; conditions: filed as activator
[6] = target: Stimulator of interferon genes protein (Homo sapiens) (UniProt Q86WV6); test: Activation of STING signaling pathway in human THP-1 cells assessed as increase in cGAMP-induced CXCL10 mRNA expression incubated for 12 hrs by qRT-PCR analysis; conditions: filed as activator, dose 0.6-10 µM
[7] = target: Stimulator of interferon genes protein (Homo sapiens) (UniProt Q86WV6); test: Activation of STING signaling pathway in human THP-1 cells assessed as increase in cGAMP-induced IFNB1 mRNA expression incubated for 12 hrs by qRT-PCR analysis; conditions: filed as activator, dose 0.6-10 µM
[8] = target: Stimulator of interferon genes protein (Homo sapiens) (UniProt Q86WV6); test: Activation of STING signaling pathway in human THP-1 cells assessed as increase in cGAMP-induced IFNB1 mRNA expression at 10 uM measured upto 36 hrs by qRT-PCR analysis; conditions: filed as activator
[9] = target: T2, Interferon regulatory factor 3 (Homo sapiens) (UniProt Q14653); test: Induction of IRF3 phosphorylation in human THP-1 cells at 2.5 to 10 uM preincubated with compound for 1 hrs followed by cGAMP addition and measured after 12 hrs by Western blot analysis; conditions: filed as activator, dose 2.5-10 µM, time 13.0 hrs
T2 sequence (whole entry): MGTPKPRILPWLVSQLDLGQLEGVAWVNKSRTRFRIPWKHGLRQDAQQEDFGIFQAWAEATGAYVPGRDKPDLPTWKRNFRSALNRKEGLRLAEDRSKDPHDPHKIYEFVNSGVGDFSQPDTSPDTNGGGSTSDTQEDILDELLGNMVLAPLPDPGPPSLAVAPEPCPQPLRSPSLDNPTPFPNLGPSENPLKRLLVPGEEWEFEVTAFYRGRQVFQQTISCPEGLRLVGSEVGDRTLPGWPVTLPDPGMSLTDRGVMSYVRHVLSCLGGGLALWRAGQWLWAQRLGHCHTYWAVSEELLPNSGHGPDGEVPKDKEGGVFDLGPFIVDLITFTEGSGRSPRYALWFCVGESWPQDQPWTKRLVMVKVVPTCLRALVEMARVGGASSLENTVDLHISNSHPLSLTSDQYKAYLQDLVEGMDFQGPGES

[10] = target: Stimulator of interferon genes protein (Homo sapiens) (UniProt Q86WV6); test: Induction of STING phosphorylation in human THP-1 cells at 2.5 to 10 uM preincubated with compound for 1 hrs followed by cGAMP addition and measured after 12 hrs by Western blot analysis; conditions: filed as activator, dose 2.5-10 µM, time 13.0 hrs
[11] = target: Stimulator of interferon genes protein (Homo sapiens) (UniProt Q86WV6); test: Activation of STING signaling pathway in human THP-1 cells assessed as increase in cGAMP-induced IL6 mRNA expression incubated for 12 hrs by qRT-PCR analysis; conditions: filed as activator, dose 0.6-10 µM
[12] = target: Serine/threonine-protein kinase TBK1 (Homo sapiens) (UniProt Q9UHD2); test: Induction of TBK1 phosphorylation in human THP-1 cells at 2.5 to 10 uM preincubated with compound for 1 hrs followed by cGAMP addition and measured after 12 hrs by Western blot analysis; conditions: filed as activator, dose 2.5-10 µM, time 13.0 hrs

Measured: Activity

COc1cccc(F)c1-c1nc(C(=O)Nc2cc(F)ccc2N2CCC(NS(N)(=O)=O)CC2)cn2ccnc12
active: [1] | [2] | [3] | [4] | [5] | [6] Dose-Dependent Effect | [7] Dose-Dependent Effect | [8] | [9] | [10] | [11] Dose-Dependent Effect | [12]
